Where “and” joins values, the source holds several entries; their conditions need not be identical. Identical values can stand only once. Only a part is listed here, and it is no random draw. Results filed as inconclusive are left out. Calls of active or inactive are those of the source. Calls follow the shape of the dose curve; as a rule, active = well fitted cell-killing curve with a large enough effect in the repeat runs; inconclusive = weak or mixed curves, or effect the other way; inactive = flat fitted curve, though single readings scatter.
% is scaled to controls: 0 for no effect and ±100 for the full control effect.

A short description of this assay: cAMP Responsive Elements (CRE) small molecule antagonists, cell-based qHTS assay: qHTS cell viability counter screen (AID 2060913). Also: nearly all actives have a fitted effect of over 40% in size. The settings on record: CRE-bla HEK293T viability, CellTiter-Glo luminescence, 5 h; at 92.4 µM (top of the series) unless noted. An outline of the steps:
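Steps: cells plated and held 18 hrs at 37 C/5% CO2; compounds and NKH477 (0.25 uM final) added; 3 hrs incubation; reporter substrate read; CellTiter-Glo added to measure cytotoxicity by luminescence.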
Consider `COc1ccc([N+](=O)[O-])cc1[N+](=O)[O-]`, for which the viability change, negative = cytotoxic is inactive: 1.72%. With `CCOP(=O)(CC)OCC`, the viability change, negative = cytotoxic is inactive: 9.13%. Regarding `COP(C)(=O)OC`, the viability change, negative = cytotoxic is inactive: -3.93% and inactive: -2.12%.

Take `N#CBr`: the viability change, negative = cytotoxic is inactive: 11.4%. Turning to `O=[N+]([O-])[O-].[NH4+]`, the viability change, negative = cytotoxic is inactive: -0.371% and inactive: -1.62%. Consider `CC(C)OP(C)(=O)OC(C)C`, for which the viability change, negative = cytotoxic is inactive: 1.29% and inactive: -0.0428%. On to `Cc1ccc([N+](=O)[O-])c([N+](=O)[O-])c1`, for which the viability change, negative = cytotoxic was inactive: 0.61% and inactive: -0.0987%. `[NH4+].[O-][Cl+3]([O-])([O-])[O-]`: the viability change, negative = cytotoxic was inactive: -0.845% and inactive: 0.338%.

With `CCOP(=O)(CC)Oc1ccc([N+](=O)[O-])cc1` (stereo not given), the viability change, negative = cytotoxic was inactive: -14.3% [at 42.5 µM].

`N=C(N)N[N+](=O)[O-]`: the viability change, negative = cytotoxic is inactive: 7.2%. To `CCN(CC)CCCl` belongs inactive: 0.195%; to `Cc1cccc([N+](=O)[O-])c1[N+](=O)[O-]`, inactive: -6.6% [at 42.5 µM]; to `C/C1=C2N=C(/C=C3N=C(/C(C)=C4\[N-][C@@](C)([C@@H]5N=C1[C@](C)(CCC(=O)NC[C@@H](C)OP(=O)([O-])O[C@H]1[C@@H](O)[C@@H](n6cnc7cc(C)c(C)cc76)O[C@@H]1CO)[C@H]5CC(N)=O)[C@@](C)(CC(N)=O)[C@@H]4CCC(N)=O)[C@@](C)(CC(N)=O)[C@@H]\3CCC(N)=O)C(C)(C)[C@@H]/2CCC(N)=O.[C-]#N.[Co+3]`, inactive: 1.7% [at 42.5 µM]. To `Cc1c([N+](=O)[O-])cccc1[N+](=O)[O-]` belongs inactive: -4.51% and inactive: 2.11%; to `O=[N+]([O-])c1cccc([N+](=O)[O-])c1`, inactive: 0.408%; to `CP(=O)(O)OCCC[Si](O)(O)O`, inactive: 0.105%. With `O=[N+]([O-])OCC(CO[N+](=O)[O-])(CO[N+](=O)[O-])CO[N+](=O)[O-]`, the viability change, negative = cytotoxic is inactive: 4.84%. To `Cc1ccc([N+](=O)[O-])cc1[N+](=O)[O-]` belongs inactive: -12.7% and inactive: -3.19%. The figure for `CC(C)N(CCO)C(C)C` is inactive: 2.19%. Consider `CN(C)CCCl`, for which the viability change, negative = cytotoxic was inactive: 4.3%.

Values taken from PubChem BioAssay (Tox21).
